By Ki is commonly meant the dissociation constant of the complex between target and ligand, obtained from inhibition or displacement.

The chains behind the UniProt entries cited, without tags or fusion partners.
UniProt P25774, whole entry: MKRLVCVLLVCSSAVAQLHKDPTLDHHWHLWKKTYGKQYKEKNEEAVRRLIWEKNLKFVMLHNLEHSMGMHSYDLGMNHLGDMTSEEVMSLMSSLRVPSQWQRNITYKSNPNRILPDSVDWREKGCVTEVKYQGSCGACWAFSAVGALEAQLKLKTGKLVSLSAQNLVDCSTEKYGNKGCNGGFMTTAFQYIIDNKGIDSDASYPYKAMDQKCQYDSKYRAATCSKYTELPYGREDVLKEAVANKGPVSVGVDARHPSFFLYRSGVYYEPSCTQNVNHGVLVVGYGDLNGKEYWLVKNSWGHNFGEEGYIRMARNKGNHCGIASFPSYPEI

The target in the experiment is Cathepsin S (Homo sapiens, UniProt P25774).
As to `C[C@@H](CNc1ccc(OC(F)(F)F)cc1)NC(=O)[C@@H](CC(=O)N1CCOCC1)CC(C)(C)C`, the Ki is 0.408 µM. In turn, `C[C@@H](CNc1ccc(OC(F)(F)F)cc1)NC(=O)[C@@H](CC(=O)N1CCOCC1)c1ccc(C(F)(F)F)cc1` showed a Ki of 1.59 µM. This Ki is about 3.9-fold higher than that of the molecule before.

Molecule `CC(C)[C@@H](CNc1ccc(OC(F)(F)F)cc1)NC(=O)[C@@H](CC(=O)N1CCOCC1)c1ccc(Cl)cc1` registered a Ki of 0.021 µM.

The molecule `CC[C@@H](CNc1ccc(OC(F)(F)F)cc1)NC(=O)[C@@H](CC(=O)N1CCOCC1)CC1CCCCC1` displayed a Ki of 0.016 µM. The molecule `COc1ccc([C@H](CC(=O)N2CCOCC2)C(=O)N[C@H](CNc2ccc(OC(F)(F)F)cc2)C(C)C)cc1` returned a Ki of 0.105 µM.

`C[C@@H](CNc1ccc(OC(F)(F)F)cc1)NC(=O)[C@@H](CC(=O)N1CCOCC1)CC1CCCC1`: the affinity, expressed as Ki, was 0.031 µM.

The values are drawn from ChEMBL document CHEMBL1139902, “Synthesis and SAR of succinamide peptidomimetic inhibitors of cathepsin S” (Bioorg Med Chem Lett, 2007).
